Assay results as given in patent publication US20260115250A1, “METHODS OF TREATING AGE-RELATED MACULAR DEGENERATION” (Character Biosciences, Inc., priority 2022, published 2026).

Experiment: DMPC solubility assay, 0.5 mM DMPC (turbidity reduction)
Format: biochemical
Conditions: FIGS. 2A-2D and 3A-3C
Experimental: The safety and functional activities of the peptides described herein are illustrated in the figures and data provided herein. For example, FIGS. 2A-2D illustrate lipid solubilization activity, measured by reducing turbidity of 1,2-dimyristoyl-sn-glycero-3-phosphocholine (DMPC) liposome solutions, for each of the peptides shown. In this example, peptide stocks were diluted to 200 μM in H2O (a 2× solution) and 50 μL of peptide solution was transferred in triplicate into 96-well plates. A one mM solution of 1,2-dimyristoyl-sn-glycero-3-phosphocholine (DMPC) in H2O was prepared, and using a multichannel pipet, 50 μL DMPC solution was rapidly added to the plate. Peptide and lipid solutions were incubated at room temperature for 15 minutes with a final concentration of 100 μM peptides and 0.5 mM DMPC. After 15 minutes, absorbance was read on a plate reader at 405 nm. […] Data are presented as mean+SD over two runs. Nearly all tested peptides cleared over 50% of lipid over the course of the assay.
Eleven of the test peptides (T-025, T-027, T-051, T-052, T-054, T-059, T-062, T-063, T-065, T-069 and T-080) were examined in greater detail, as shown in FIGS. 3A-3C. In these experiments, DMPC solubility titration curves were generated. […] After 15 minutes, absorbance was read on a plate reader at 405 nm. […]

For “T-012: therapeutic peptide (QSTEELRVRLASHLRKLRKRLL)”, the DMPC solubilizing activity was “significant activity”.
